Earlier results in patent publication US20120046461A1, “STEROIDAL ANTI-HORMONE HYBRIDS” (Northeastern University, priority 2009, published 2012).

Conditions: in vivo; cited from earlier work

Substance: herceptin: FDA approved mAb for the treatment of metastatic breast cancers that overexpress HER-2
- tumor regression, share of recipients: 7%
